{"source": "patent US6743429B2", "about": "“Use of calcitonin gene-related peptide in the prevention and alleviation of asthma and related bronchospastic pulmonary diseases” (Sherbrooke University, priority 1999, dated 2004)", "key": {"[1]": {"test_system": "guinea pig isolated parenchymal strips", "assay": "Inhibition by CGRP of substance P-induced contraction in isolated parenchymal strips", "assay_type": "cell-based", "procedure": "Adult Hartley albino guinea pigs of either sex, weighing 200-250 g were actively sensitized to ovalbumin (OA), as described in (20). They were injected with 100 mg i.p. and 100 mg s.c. of OA on day 1 and a further 10 mg i.p. was administered as a booster on day 8. They were used experimentally 14 or 15 days later. Control animals received the vehicle solution only. All research protocols conform to the guiding principles for animal experimentation and were approved by the Ethical Committee on Animal Research of the Medical School of the Université de Sherbrooke.\nGuinea pigs were killed by exsanguination following intraperitoneal injection of pentobarbitone sodium (50 mg/kg). The trachea and lungs were quickly removed and placed in cold Krebs solution. Both right and left main bronchi were dissected out and cut into spirals. Parenchymal strips (approximately 15 mm×3 mm×3 mm) were cut from the periphery of either right or left lower lobes of the lung as previously described (4, 20). Each preparation was mounted in a 5 ml organ bath containing Krebs solution (37° C.) bubbled with 5% CO2 in O2. Contractions were measured isometrically with a Grass FT03 force displacement transducer and recorded on a Grass polygraph (Model 7D) as tension changes (g). All tissues were subjected to an initial loading tension of 1 g and allowed to equilibrate for 60 min (with changes of bath medium every 15 min) before experimentation began.\nThe inhibitory effect of CGRP on SP-induced contractions was investigated essentially as described previously (4, 20). Each tissue preparation was first primed with a concentration of carbamylcholine (10^−6M) to evaluate its responsiveness. When the basal tone was reestablished (after a few washouts), contractions to SP (5×10^−8M) were elicited at 15 min intervals with a drug contact time just sufficient to record the peak response. CGRP (10^−9M to 10^−6M) was then added to the organ bath and 5 minutes later a further spasmogen challenge occurred. The contraction produced in the presence of CGRP was then compared with the mean of two control responses to SP observed prior to CGRP administration. […] Concentrations of CGRP were tested in a random order in each experiment. It is worthy of note that the inhibitory effect of CGRP on contractions induced by SP was also examined at a dose of SP (5×10^−8M) that induced similar maximal responses in tissues obtained from each group of animals."}, "human isolated bronchi": {"test_system": "human isolated bronchi", "assay": "Inhibition by CGRP of carbamylcholine-induced contraction in human isolated airways", "assay_type": "cell-based", "procedure": "Because lung inflammation is a common feature in asthmatic patients, experiments were then repeated using human isolated airways to determine whether this same phenomenon also occurred. Macroscopically normal lung specimens were obtained from 6 patients undergoing surgery for carcinoma and from autopsy (n=9) performed within 6 hours of death. The study protocol was approved by the Ethical Committee of the University Hospital. […] The lung specimens were transported to the laboratory in ice-cold pre-oxygenated Krebs solution. Suitable cartilaginous bronchi (internal diameter 2 to 4 mm) were dissected free of adjacent tissue and were either used immediately (autopsy cases) or after 24 hr storage in pre-oxygenated Krebs solution at 4° C. Isolated bronchi were cut into helical strips and set up for isometric recording (initial tension: 1 g) under the conditions described for the isolated guinea pig airways. They were primed by adding 10^−3M carbamylcholine followed by washouts, which ensured a stable function for the rest of the experiment."}}}
{"substance": "calcitonin gene-related peptide [CGRP]", "values": [{"measurement": "maximum inhibition of SP-induced contraction", "setting": "[1]; OA-sensitized guinea pigs, CGRP 10^−6M, SP 5×10^−8M, n=5", "value": "18.7±4.8", "unit": "%"}, {"measurement": "effect on contractions induced by SP", "setting": "[1]; both groups of tissue (control and OA-sensitized), CGRP 10^−6M", "value": "significantly inhibited"}, {"measurement": "inhibitory effect on SP-induced contraction, percentage of contraction developed by SP alone", "setting": "[1]; control guinea pigs, CGRP 10^−6M, SP 5×10^−8M, n=4", "value": "47.3±3", "unit": "%"}, {"measurement": "effect on SP-induced contraction", "setting": "[1]; control tissues, CGRP 10^−8M pre-incubation", "value": "slight reduction"}, {"measurement": "direct relaxant or contractile action per se", "setting": "[1]; guinea pig isolated airways, exogenously applied CGRP alone", "value": "no relaxant and no contractile action"}, {"measurement": "effect on SP-evoked response", "setting": "[1]; parenchyma from OA-sensitized animals, CGRP 10^−8M", "value": "did not alter the amplitude or the shape"}, {"measurement": "antispasmogenic effect on carbamylcholine (10^−6M) contraction", "setting": "human isolated bronchi; control human tissues (no inflammation)", "value": "efficient antispasmogenic agent"}, {"measurement": "bronchoprotector properties against carbamylcholine (10^−6M) contraction", "setting": "human isolated bronchi; inflammed human airways", "value": "totally abolished"}]}
